Measured values reported in patent EP4837578A1, “SAFER DRUG AND USE THEREOF” (dated 2026).
Values belong to the molecule of their own block, whether it stands above or below them.

What was measured:
[1] = influence factor tests (light protection, high temperature, light exposure)
Description: Herein, API-1 is ondansetron, and API-2 is diltiazem. […] Under high temperature and light protection conditions, API-1 has essentially no significant effect on the stability of API-2.

[2] = stability test of the laboratory-optimized formulation at 2-8°C and 25°C
Description: As of July 19, 2022, 83,849 people had reported experiencing side effects while taking ondansetron, of whom 3,448 (4.11%) died. […] FPDc (the rate corrected field potential duration) represents the heart rate-corrected field potential duration and is equivalent to the QT interval in an electrocardiogram. […] Herein, API-1 is ondansetron, and API-2 is diltiazem. […] Under high temperature and light protection conditions, API-1 has essentially no significant effect on the stability of API-2. […] API-2 (diltiazem) remains relatively stable when stored at 2-8°C; however, under 25°C conditions, it primarily generates a degradation impurity, API-2F.

[3] = system: human induced pluripotent stem cell-derived cardiomyocytes (hiPSC-CMs); assay: Multi-electrode Array (MEA) field potential recording of hiPSC-CMs; conditions: for toxicity of ondansetron: ondansetron 120 µg/L
Description: A stem cell cardiac electrophysiology research and development platform was used to screen drug combination regimens. The basic procedure was as follows: • (1) Human induced pluripotent stem cell-derived cardiomyocytes were thawed and seeded onto Multi-electrode Array (MEA) cell culture plates, with the cell culture medium changed daily. • (2) After approximately 4 to 8 days, recording of cardiac cell electrical signals began. Baseline cardiac cell electrical signals prior to drug administration, as well as cardiac cell electrical signal data following the addition of drugs such as ondansetron and diltiazem, were recorded. • (3) Differences in electrical signals under the influence of different drugs were compared, the data were analyzed, and graphs for comparison were generated.
Human induced pluripotent stem cell-derived cardiomyocytes (hiPSC-CMs) were thawed and seeded onto a Multiple-electrode Array (MEA) plate pre-coated with hiPSC-CM coating solution. hiPSC-CM maintenance medium was used for medium changes, and thereafter the cell culture medium was changed daily until the completion of drug administration and recording. After 4-8 days of culture on the MEA plate, recording of cardiac electrical signals could begin. Baseline cardiac cell electrical signals were recorded prior to drug administration. Following the addition of ondansetron, cardiac electrical signal data were recorded. Subsequently, drugs such as diltiazem were added, and cardiac cell electrical signals were recorded. The recorded electrical signal data were analyzed, exported to Excel, and then plotted and analyzed using GraphPad.

[4] = as of July 19, 2022; cited from earlier work

stability of API-1 ([1]; high temperature and light protection): relatively stable
stability of API-1 ([1]; light exposure): unstable
stability (related substances) ([2]; 2-8°C and 25°C): no significant changes
FPDc (the rate corrected field potential duration) ([3]; ondansetron alone 120 µg/L, compared to the control group): significantly increased
SMILES: Cc1nccn1CC1CCc2c(c3ccccc3n2C)C1=O (stereo not drawn)
people reported experiencing side effects while taking ondansetron [4]: 83,849
people who died among those reporting side effects [4]: 3,448
share who died among those reporting side effects [4]: 4.11%

SMILES: CC1=NS(=O)(=O)c2cc(Cl)ccc2N1
toxicity of ondansetron ([3]; diazoxide 6.92 mg/L): could not eliminate

stability of API-2 ([1]; high temperature): unstable
stability of API-2 ([1]; light exposure): unstable
stability of API-2 ([1]; light protection): stable
stability ([2]; stored at 2-8°C): remains relatively stable
SMILES: COc1ccc([C@@H]2Sc3ccccc3N(CCN(C)C)C(=O)[C@@H]2OC(C)=O)cc1
stability ([2]; 25°C): primarily generates a degradation impurity, API-2F
ondansetron-induced cardiac electrical activity disorder in cardiomyocytes ([3]; diltiazem 8.12 µg/L added to ondansetron 120 µg/L): can effectively reverse

SMILES: CC(C)NCC(O)COc1ccc(CC(N)=O)cc1 (stereo not drawn)
toxicity of ondansetron ([3]; atenolol 4.79 mg/L): could not eliminate
